Values of other authors, collected in article PMC7459591 (Marine Drugs, 2020).

Amino acid sequences for entries named in this document (tags omitted).
UniProt P08510, whole entry: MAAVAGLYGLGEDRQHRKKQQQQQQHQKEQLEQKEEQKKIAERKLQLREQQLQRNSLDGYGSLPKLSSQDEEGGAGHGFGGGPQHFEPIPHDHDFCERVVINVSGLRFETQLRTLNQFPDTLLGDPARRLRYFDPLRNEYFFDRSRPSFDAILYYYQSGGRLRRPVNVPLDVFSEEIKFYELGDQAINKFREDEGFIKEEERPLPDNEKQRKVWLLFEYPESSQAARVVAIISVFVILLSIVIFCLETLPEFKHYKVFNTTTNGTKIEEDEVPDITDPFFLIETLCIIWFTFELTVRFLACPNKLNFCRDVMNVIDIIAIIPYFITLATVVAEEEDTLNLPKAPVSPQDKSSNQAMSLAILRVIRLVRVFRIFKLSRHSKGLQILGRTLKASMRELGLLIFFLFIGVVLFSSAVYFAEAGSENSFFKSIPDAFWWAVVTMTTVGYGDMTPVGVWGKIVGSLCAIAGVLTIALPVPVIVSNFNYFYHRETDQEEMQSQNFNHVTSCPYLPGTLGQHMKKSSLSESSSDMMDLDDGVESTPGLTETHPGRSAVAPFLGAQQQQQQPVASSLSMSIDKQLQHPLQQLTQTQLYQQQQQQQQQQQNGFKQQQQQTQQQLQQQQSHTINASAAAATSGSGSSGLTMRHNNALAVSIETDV

Target: Shaker potassium channel (Drosophila melanogaster) (UniProt P08510)
Settings: cited from earlier work

For Conorfamide-Sr3 (from UniProt P0DM28), the Kd is given as 2.7 µM.
